{"sequences": {"note": "The chains behind the UniProt entries cited, without tags or fusion partners.", "UniProt Q99685, whole entry": "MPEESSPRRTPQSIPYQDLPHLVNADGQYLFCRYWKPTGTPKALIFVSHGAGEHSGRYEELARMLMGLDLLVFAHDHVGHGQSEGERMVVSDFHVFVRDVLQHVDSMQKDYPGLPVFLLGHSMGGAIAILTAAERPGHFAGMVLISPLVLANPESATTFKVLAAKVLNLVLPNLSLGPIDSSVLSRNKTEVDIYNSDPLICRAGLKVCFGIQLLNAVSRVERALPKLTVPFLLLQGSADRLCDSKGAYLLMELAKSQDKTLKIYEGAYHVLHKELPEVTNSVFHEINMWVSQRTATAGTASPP"}, "source": "paper PMC12430169", "about": "“Notoginsenoside R1, a Metabolite from Panax notoginseng, Prevents Paclitaxel-Induced Peripheral Neuropathic Pain in Mice” (Molecules, 2025)", "molecular_target": "T1, human recombinant monoacylglycerol lipase (MAGL) (Homo sapiens, UniProt Q99685)", "T1 construct": "gene MGLL", "test": "biochemical"}
{"smiles": "O=C(Oc1ccc([N+](=O)[O-])cc1)N1CCN(Cc2cccc(Oc3ccccc3)c2)CC1", "note": "[JZL195]", "values": [{"measurement": "IC50", "result": 0.331, "unit": "µM"}]}
